Antibody variant affinities, Ab-14 light chain, assay B

From the AlphaSeq antibody data of Li et al. 2023 (doi:10.1038/s41467-023-39022-2), copy in the FLAb collection.

All variants were tested on one target, the spike HR2 peptide PDVDLGDISGINAS (SARS-CoV-2).

Parent: Ab-14, a human scFv built as VH, a 15-residue (Gly4Ser)3 linker, VL. Only the CDRs of the light chain vary.
VH: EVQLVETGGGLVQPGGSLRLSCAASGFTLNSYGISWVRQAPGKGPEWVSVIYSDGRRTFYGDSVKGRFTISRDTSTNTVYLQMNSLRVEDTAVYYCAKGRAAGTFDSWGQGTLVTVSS
VL: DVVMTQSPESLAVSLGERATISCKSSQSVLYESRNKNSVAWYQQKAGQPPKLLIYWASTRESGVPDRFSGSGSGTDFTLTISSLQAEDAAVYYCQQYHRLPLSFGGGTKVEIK

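The variants were designed computationally from a first round of random CDR variants and then made and measured. Group labels follow the data file (Ctrl: baseline library sampled from a position-specific scoring matrix, with some repeated check sequences; GP: Gaussian process model; GPLM: also part of the Gaussian process libraries; HC: hill climbing; Gen: genetic algorithm; Gibbs: Gibbs sampling; a sequence that several methods proposed may carry one label only). AlphaSeq pools MATa yeast showing the antibodies with MATalpha yeast showing the peptide. Binding brings cells together so that they mate, and sequencing counts the barcode pairs among the diploids. A regression on co-assayed BCL2-family reference pairs converts the normalised counts of each replicate to an apparent Kd. There are six technical replicates.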

Each variant is given by its three light chain CDRs, as the data file delimits them; those of the parent are KSSQSVLYESRNKNSVA, WASTRES, QQYHRLPLS. Variants here have at most six changes. Kd is apparent (estimated from mating counts) and averaged on the log scale over replicates with a signal. Smaller is tighter. "nd" means that the variant was in the library but no mating with the target was seen in any replicate; the authors take this as a sign of poor binding, and no number exists. A sequence that the file lists under several names has all its replicates pooled. The range of this assay differs from that of the first round, and the authors advise against merging the two. The authors' rule: three or more of the six replicates give a measured affinity, fewer mean a poor binder. The parent sequence was in this pool as ten entries: three were never detected, three once, and four in most replicates, with averages from 2.2 nM to 240 nM. Empty control strains, which show no peptide, gave a signal in 4% of pairings with all light chain designs; the median was 430 nM and 95% of these signals were weaker than 38 nM. No background was subtracted.

Variant KQSGEKLYESRNKNSVA, DASTRES, QQYHRLPLS [GP_HC] showed 860 pM (6 of 6 replicates).
Variant KLQQSNGYESRNKNSVA, NASTRES, QQYHRLPLS [GP_Gen] showed 500 pM (6 of 6 replicates).
Variant KSSQSVLYESRNKNSVA, NASTRES, QQYHRLPLS [Ctrl+GPLM_HC] showed 2.7 nM (12 of 12 replicates).
Variant KLSQSWLYESRNKNSVA, SASTRES, QQYHRLPLS [GP_Gen] showed 1.3 nM (6 of 6 replicates).
Variant KVSQSGPYDSRNKNAVA, SASTRES, QQYHRLPLS [Ctrl] showed 730 pM (6 of 6 replicates).
Variant HSSQSVLYESRNFNSVA, WASTRES, QQYHRLPLS [Ctrl] showed 350 nM (4 of 6 replicates).
Variant KLSQSWLYESRNKNNVA, NASQRMS, QQYHRLPLS [GP_Gen] showed 420 pM (6 of 6 replicates).
Variant KLSQSVLYEPRNSQSVA, DASTRYS, QQYHRLPLS [GP_Gibbs] showed 410 pM (6 of 6 replicates).
Variant KMSQSVKYESRNKNSVA, DASTRES, QQYHRLPLS [Ctrl] showed 1.3 nM (6 of 6 replicates).
Variant KSLQSVLEESRNKNSVA, HASTRED, QQYHQLPLS [GP_HC] showed 42 nM (6 of 6 replicates).
Variant KLSQWVLYESRTKNSVA, NASTRES, QQYHRLPLS [GP_HC] showed 940 pM (6 of 6 replicates).
Variant KVSQSWLYESRNKNSVA, GASFRES, QQYHRLPLS [GP_HC] showed 1.5 nM (6 of 6 replicates).
Variant KLSPSWWYESRNKASVA, HASTRES, QQYHRLPLS [GP_Gibbs] showed 2.8 nM (6 of 6 replicates).
Variant KLSQSELYESRNKNSVA, EASQRED, QQYHRLPLS [GP_Gen] showed 1.4 nM (6 of 6 replicates).
Variant KSSISKLEESRNKNSVA, EASTRES, QQYHRLPLS [GP_HC] showed 18 nM (3 of 6 replicates).
Variant KSSQSVLYERRNKNSVA, NASTRES, QQYHRLPLS [Ctrl] showed 140 nM (6 of 6 replicates).
Variant KLPQMVLYESRNKNSVA, GASTRES, QQYHRLPLS [GP_HC] showed 560 pM (6 of 6 replicates).
Variant KLSQSMLYESRNKNNVA, EASQRES, QMYHRLPLS [GP_Gibbs] showed 2.1 nM (6 of 6 replicates).
Variant KSSQSVLAQSRNKNSVA, DASTRES, QQYHRLPLS [GP_HC] showed 850 pM (6 of 6 replicates).
Variant KSSQSVLYESRNKNIVA, WASTRES, QQYHRLPLS [Ctrl] showed nd (0 of 6 replicates).
Variant KSSQSVLTESRNENSVA, EASTRPW, QQYHRLPLS [Ctrl] showed 2.0 nM (6 of 6 replicates).
Variant KSSISILYESVNKNSVA, HASTRES, QQYHRLPLS [GP_HC] showed 6.1 nM (6 of 6 replicates).
Variant KSSISYLYESRNENSVA, EASTREQ, QQYHRLPLS [GP_HC] showed 2.1 nM (6 of 6 replicates).
Variant KVSQSVLYGSRNKNSVA, EASTRES, QQYHRLPLS [GP_Gen] showed 690 pM (6 of 6 replicates).
Variant KSSLSYLYESRNKNSVA, EASTRES, QQYHRLPLS [GP_HC] showed 1.2 nM (6 of 6 replicates).
Variant KSSQSVLYMERNFNSVA, WASTRES, QQYHRLPLS [Ctrl] showed nd (0 of 6 replicates).
Variant KLQQSVQYESRNKNSVA, HASTRES, QQYHRLPLS [GP_Gen] showed 3.4 nM (6 of 6 replicates).
Variant KLSQSVLYLSRNKNSVA, NASTRES, QQYHRLPLS [GP_Gen] showed 580 pM (6 of 6 replicates).
Variant KVYQSELYESRNKNSVA, NASQRES, QQYHRLPLS [GP_Gen] showed 1.1 nM (6 of 6 replicates).
Variant HSSQSVLYESTLKNSVA, RASTRES, SQYHRAPLS [Ctrl] showed nd (0 of 6 replicates).
Variant KLPQSMLYESRNKNSVA, NASTRLS, QQYHRLPLS [GP_Gen] showed 1.3 nM (6 of 6 replicates).
Variant KSSQSVLTESRNKNSVA, DASTRES, QQYHRLPLS [Ctrl+GP_HC] showed 1.6 nM (12 of 12 replicates).
Variant KLSQSNLYESRNKNNVA, GASTRES, QQYHRLPLS [GP_Gen] showed 590 pM (6 of 6 replicates).
Variant KSSQSVTYESRNKNSVA, WASTRNE, QQPHRLPLS [Ctrl] showed nd (0 of 6 replicates).
Variant KSSQSLPYESRNKNSVA, WASTRES, QLYHRLPLS [Ctrl] showed 170 nM (5 of 6 replicates).
Variant KSSGSYLYESGNKNSVA, EASTRES, QQYHRLPLS [GP_HC] showed 2.1 nM (6 of 6 replicates).